This assay addresses DntR (Burkholderia sp. DNT, UniProt Q7WT50). The experiment in a line: gfp reporter induction in E. coli, flow cytometry. Particulars: 500 µM; inducer; M9 medium; 30 °C.

Protein sequences, listed by entry. Tags and fused reporters are not part of them. Residues count along the entry.
UniProt Q7WT50, 1-301 limits assumed: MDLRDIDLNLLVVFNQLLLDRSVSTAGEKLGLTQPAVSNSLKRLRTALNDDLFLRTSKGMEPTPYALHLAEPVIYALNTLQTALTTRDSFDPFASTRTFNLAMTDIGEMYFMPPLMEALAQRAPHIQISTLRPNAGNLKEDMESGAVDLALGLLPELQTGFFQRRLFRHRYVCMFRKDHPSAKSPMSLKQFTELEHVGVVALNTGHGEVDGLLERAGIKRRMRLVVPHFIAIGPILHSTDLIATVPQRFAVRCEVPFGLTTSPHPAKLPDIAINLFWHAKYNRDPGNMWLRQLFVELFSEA

The structures appear in SMILES notation. This is a selection: effects in other tests are not listed, and their absence says nothing.

In turn, `Cc1ccc([N+](=O)[O-])cc1[N+](=O)[O-]` showed a DNT of 1.2±0.1 fold.

For the origin of these results see PMC3261848.
